In patent EP0935963A2, “The use of MMP-13 selective inhibitors for the treatment of osteoarthritis and other matrix metalloproteinase-mediated disorders” (Pfizer Products Inc., priority 1997, dated 1999):

Experiments:
[1] = target: T1, Human recombinant collagenase-1 (Homo sapiens, UniProt P03956); experiment: Inhibition of Human Collagenase (MMP-1), fluorescence assay; assay type: biochemical
T1 sequence (P03956 100-469): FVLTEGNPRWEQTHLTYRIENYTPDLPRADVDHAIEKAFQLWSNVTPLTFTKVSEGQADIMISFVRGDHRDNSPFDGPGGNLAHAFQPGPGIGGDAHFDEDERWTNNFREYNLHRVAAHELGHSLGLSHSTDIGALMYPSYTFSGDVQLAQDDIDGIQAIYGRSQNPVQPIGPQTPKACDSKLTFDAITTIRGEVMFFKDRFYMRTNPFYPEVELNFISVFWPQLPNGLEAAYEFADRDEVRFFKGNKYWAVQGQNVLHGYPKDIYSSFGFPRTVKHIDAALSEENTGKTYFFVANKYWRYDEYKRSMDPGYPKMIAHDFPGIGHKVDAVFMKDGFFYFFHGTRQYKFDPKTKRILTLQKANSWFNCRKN
Description: Human recombinant collagenase-1 is activated with trypsin. The amount of trypsin is optimized for each lot of collagenase-1 but a typical reaction uses the following ratio: 5 µg trypsin per 100 µg of collagenase.. The trypsin and collagenase are incubated at room temperature for 10 minutes then a five fold excess (50 mg/10 mg trypsin) of soybean trypsin inhibitor is added.
Stock solutions (10 mM) of inhibitors are made up in dimethylsulfoxide and then diluted using the following Scheme: 10 mM → 120 µM → 12 µM → 1.2 µM → 0.12 µM
Twenty-five microliters of each concentration is then added to triplicate wells of a 96 well microfluor plate. The final concentration of inhibitor will be a 1:4 dilution after addition of enzyme and substrate. Positive controls (enzyme, no inhibitor) and negative controls (no enzyme no inhibitors) are also run in triplicate on each plate.
Collagenase-1 is diluted to 240 ng/ml and 25 µl is then added to appropriate wells of the microfluor plate. […]
Fluorescence readings (360 nm excitation, 460 nm emission) are taken at time 0 and then at 20 minute intervals. […]
Fluorescence versus time is then plotted for both the blank and collagenase containing samples (data from triplicate determinations is averaged). […] Data is plotted as inhibitor concentration versus % control (inhibitor fluorescence divided by fluorescence of collagenase alone x 100). […]

[2] = target: T2, MMP-1 (Homo sapiens, UniProt P03956); experiment: biochemical
T2 sequence (P03956 100-469): T1 sequence (P03956 100-469)
Description: Rat type I collagen is radiolabeled with ^14C acetic anhydride (T.E. Cawston and A.J. Barrett, Anal. Biochem., 99, 340-345 (1979)) and used to prepare 96 well plates containing radiolabeled collagen films (Barbara Johnson-Wint, Anal. Biochem., 104, 175-181 (1980)). When a solution containing collagenase is added to the well, the enzyme cleaves the insoluble collagen which unwinds and is thus solubilized. […] Collagenase inhibitors are, therefore, compounds which reduce the radioactive counts released with respect to the controls with no inhibitor present. One specific embodiment of this assay is described in detail below. […]
100 µl of appropriate drug dilution and 100 µl of diluted enzyme are pipetted into wells of a 96 well plate containing collagen films labeled with ^14C-collagen. […] Each drug concentration and control is analyzed in triplicate. […]
The plates are incubated at 37°C for a time period such that around 30 - 50% of the available collagen is solubilized - determined by counting additional control wells at various time points. […] When the assay has progressed sufficiently, the supernatant from each well is removed and counted in a scintillation counter. The background counts (determined by the counts in the wells with no enzyme) are subtracted from each sample and the % release calculated in relation to the wells with enzyme only and no inhibitor. […]

Q: Which results are given for `CNC(=O)[C@H](Cc1ccc(OC)cc1)NC(=O)C(CC(=O)NO)CC(C)C` (some centres unmarked) [Example 1, reference compound]?
A: IC50 [1]: 2.5 nM; IC50 [2]: 3.5 nM
